How the values were obtained:
[1] = tested on: SCN1A (R1407X) CA1 GABAergic neurons; assay: Brain-slice whole-cell recordings, Dravet syndrome GABAergic neurons; format: cell-based, mouse; conditions: 10 nM
Experimental: Mice (post-natal day 14-16) were anaesthetized using isoflurane and sacrificed by decapitation. Brain slices (300-μm thick) were cut using a vibratome in the sagittal plane. Slices were kept at room temperature until recording. The slices were transferred to a recording chamber constantly perfused at 34° C. with artificial cerebrospinal fluid (CSF) solution consisting of: 125 mM NaCl, 2.5 mM KCl, 25 mM NaHCO3, 1.25 mM NaH2PO4, 1 mM MgCl2, 2 mM CaCl2) and 10 mM glucose, aerated with 95% O2 and 5% CO2 (final pH of 7.4). Whole-cell patch-clamp recordings were made using a MultiClamp 700A amplifier and pClamp acquisition software (Molecular Devices) from neurons visually identified using infrared differential interference contrast imaging (BX51, Olympus). Electrodes were pulled using a Sutter P-2000 puller (Sutter Instruments) from borosilicate micropipettes (World Precision Instruments) with an initial resistance of ˜2-3 megaohms and filled with intracellular solution consisting of 125 mM KGlu, 4 mM KCl, 2 mM MgCl2, 10 mM HEPES, 10 mM EGTA, 4 mM ATP-Mg, 0.3 mM GTP-Na, and 8 mM Biocytin Hydrochloride adjusted to a final pH of 7.3 with KOH. D-Mannitol was used to adjust osmolarity to 300 mOsm. Bridge balance was applied to all recordings. Voltage recordings were filtered at 30 kHz and sampled at 100 kHz. A holding current was injected into neurons if required, setting their holding potential to approximately −75 mV. A current injection/action potential (AP) frequency relationship was established by injecting an 800 ms square pulse of progressively depolarising currents. An automated AP detection algorithm in Axograph was used to detect AP with visual confirmation. The integrated number of APs between injection current bins of the i-o relationships was calculated (Axograph X) in order to allow comparison between control and Hm1a. AP threshold voltage was defined as the voltage at which velocity reached 10 mV/ms. For the AP waveform analysis, amplitude was measured from threshold to peak, rise-time was determined as the time between 10% to 90% of the AP amplitude and AP width was measured at 50% of the peak amplitude. AP measured at ‘collapse’ were selected for each individual cell at the first current injection at which AP collapse was robust. APs at the same current injection were analyzed in the presence of Hm1a. Membrane input resistance was measured in current clamp mode by measuring the last 200 ms of the voltage trace generated by a current injection of −10 pA.
Whole-cell recordings were made from CAT GABAergic neurons obtained from SCN1A (R1407X) Dravet syndrome mice, identified by their position within the molecular layers, and an input current versus AP firing rate relationship established. AP firing collapse in GABAergic interneurons was a robust cellular phenotype (FIG. 5a, b). […] Hm1a had no impact on resting potential (Table 7) or input resistance (550±73 versus 460±60 MΩ, p=0.11, n=10) of the SCN1A (R1407X) GABAergic neurons.

[2] = tested on: Dravet syndrome mice; assay: Long-term ICV infusion, seizure frequency and mortality; format: in vivo, mouse
Experimental: To determine the long-term efficacy of synthetic Hm1a (Example 1), 24 hours after ICV guide cannula surgery performed as per Example 5, a cohort of Dravet syndrome mice were administered Hm1a (0.5 μM in 0.1% bovine serum albumin in sterile saline) or vehicle (0.1% bovine serum albumin in sterile saline) continuously at a rate of 0.2 L/minute for up to five days using syringe and driver as previously described in Example 5 (n=4). Seizure frequency was measured using continuous video recordings of unrestrained animals from P18 to P23.
Hm1a was infused during the critical window from P19 to P23, when the highest rate of ictal events and mortality occurs in the Dravet syndrome model (Yamakawa (2011) Epilepsia, 52(s2): 70-71). Seizures were abolished following Hm1a administration and these animals remained seizure free for the duration of the experiment (FIG. 16a, left panel), in comparison to control animals which experienced ongoing seizures (FIG. 16a, right panel). Moreover, control animals treated with vehicle only all died within 26 hours, whereas there was no mortality in the cohort of animals treated with Hm1a (FIG. 16b).

## CC(C)C[C@@H]1NC(=O)[C@H](Cc2ccc(O)cc2)NC(=O)[C@H](CCCNC(=N)N)NC(=O)[C@@H](NC(=O)[C@@H](N)CCC(=O)O)CSSC[C@@H]2NC(=O)[C@@H]3CSSC[C@@H](C(=O)N[C@@H](C)C(=O)N[C@@H](Cc4c[nH]c5ccccc45)C(=O)N[C@@H](CC(=O)O)C(=O)NCC(=O)N[C@H](C(=O)N[C@@H](Cc4ccccc4)C(=O)N[C@@H](CO)C(=O)O)[C@@H](C)O)NC(=O)[C@H](Cc4ccc(O)cc4)NC(=O)[C@H](CCCCN)NC(=O)[C@H](Cc4c[nH]c5ccccc45)NC(=O)[C@H](CC(=O)O)NC(=O)[C@H](CO)NC(=O)[C@H](CCCNC(=N)N)NC(=O)[C@H](CSSC[C@H](NC(=O)CNC(=O)CNC(=O)[C@H](Cc4ccccc4)NC1=O)C(=O)N[C@@H](CO)C(=O)N[C@@H](CO)C(=O)N[C@@H]([C@@H](C)O)C(=O)N[C@@H](CO)C(=O)N[C@@H](CC(=O)O)C(=O)N3)NC(=O)[C@H](CO)NC(=O)[C@H](CC(C)C)NC(=O)[C@H](Cc1c[nH]cn1)NC(=O)[C@H](CCCCN)NC2=O [Hm1a]
[1]
  morphology of the first two APs around the point of collapse: no significant change
[1]; 550±73 versus 460±60, p=0.11, no impact
  input resistance: 460±60 MΩ
[1]; control 0.76 ± 0.06
  Action potential Rise at rheobase: 0.71 ± 0.04 ms
[1]; control 1.8 ± 0.2
  Action potential Width at rheobase: 1.9 ± 0.2 ms
[1]; control 70 ± 2, n = 10
  Action potential Amp at rheobase: 71 ±4 mV
[1]; control 73 ± 2
  RMP: 72 ± 2 mV
[1]; control −44 ± 2
  Action potential Threshold at rheobase: −36 ± 4 mV
[1]; current injections between 300 and 450 pA, p=0.02
  AP firing at current injections that caused 'AP collapse': rescued AP firing
[1]; p=0.001
  rheobase: small but significant right-shift
[1]; p=0.005, n=10
  maximal amplitude of 9th AP in a train at collapse: 27.1±0.1 mV
[1]; versus 1.7±0.2, p=0.05
  rise-time of 9th AP: 1.3 ± 0.1 ms
[1]; versus 4.3±0.4, p=0.07
  half-width of 9th AP: 3.0 ± 0.4 ms
[2]; continuous ICV infusion of Hm1a 0.5 μM, P19 to P23, n=4
  seizures: abolished
[2]; continuous ICV infusion, vehicle controls all died within 26 hours
  mortality: no mortality

Reference: patent publication US11124550B2, “Proteinaceous molecules and methods of use” (priority 2015, dated 2021)
